Results taken from PubChem BioAssay AID1865 (National Center for Advancing Translational Sciences (NCATS), 2009).
The entries are a selection whose mix differs from that of the whole data set. Some structures show a salt or complex split into parts, the way the source records it. Active and inactive are the calls of the source. Calls come from the whole dose curve; as a rule, active = well fitted activation curve with a large enough effect; inconclusive = small, poorly fitted or top-dose-only effect; inactive = flat fitted curve, though single readings scatter.

Assay: Quantitative High-Throughput Screen for Regulators of Epigenetic Control; note: % of control where 0% means no effect; nearly all actives have a fitted effect of over 60% in size
Conditions: murine LDR cells, GFP reporter derepression, 30 h; at 53.9 µM (top of the series)
Text: NIH Molecular Libraries Screening Centers Network [MLPCN] NIH Chemical Genomics Center [NCGC] MLSCN Grant: 1 X01 MH079860-01 Assay Provider: Elisabeth D. Martinez, University of Texas SW Medical Center NCGC Assay Overview: The Locus Derepression (LDR) assay detects the derepression or induction of a GFP reporter that is stably integrated in a genomic region of murine cells that is presumably silenced. Transcription of the GFP reporter is controlled by a CMV promoter, which normally is constitutively active. However, this cell line, termed LDR, was selected for lack of constitutive production of GFP. GFP production can be induced by incubating the cells with histone deacetylase or DNA methyltransferase inhibitors (Martinez et al., 2006). Compounds that derepress or induce this reporter locus are identified by enumerating GFP positive cells using a laser-scanning microplate cytometer (Auld et al., 2006). This assay was screened against the MLSMR earlier (AID 597; (Johnson et al., 2008) and has been rescreened here against the expanded collection.
NCGC Assay Protocol Summary: Three hundred LDR cells in 5 uL per well were dispensed into black, clear-bottom 1536-well plates. Twenty-three nL compound was transferred to the assay plate and cells were incubated 30 hours at 37 C. Medium was removed, cells were washed two times with PBS, and GFP-positive cells were enumerated as fluorescent objects between the sizes of 20 to 120 um width and depth using an Acumen Explorer. References Auld, DS, Johnson, RL, Zhang, YQ, Veith, H, Jadhav, A, Yasgar, A, Simeonov, A, Zheng, W, Martinez, ED, Westwick, JK, Austin, CP, Inglese, J (2006). Fluorescent protein-based cellular assays analyzed by laser-scanning microplate cytometry in 1536-well plate format. Methods Enzymol 414: 566-89. Johnson, RL, Huang, W, Jadhav, A, Austin, CP, Inglese, J, Martinez, ED (2008). A quantitative high-throughput screen identifies potential epigenetic modulators of gene expression. Anal Biochem 375: 237-48. Martinez, ED, Dull, AB, Beutler, JA, Hager, GL (2006). High-content fluorescence-based screening for epigenetic modulators. Methods Enzymol 414: 21-36.

| Structure (SMILES) | GFP activation |
| --- | --- |
| CCOc1ccc(C)cc1CN(CCCl)CCCl | inactive: -0.281% |
| O=C(NCC1(N2CCOCC2)CCCCC1)c1ccc(Cl)cc1 | inactive: -1.61% |
| COc1ccc(NC2CCN(CCc3ccccc3)CC2)c(OC)c1 | inactive: -0.273% |
| COc1ccccc1C(=O)NCC1(N2CCOCC2)CCCCC1 | inactive: 1.61% |
| Cc1ccc(OCC(C)C)c(CN(CCCl)CCCl)c1 | inactive: 0% |
| COc1ccc(C(=O)NCC2(N3CCCCC3)CCCCC2)c(OC)c1OC | inactive: 3.61% |
| O=C(NCC1(N2CCOCC2)CCCCC1)c1cc2ccccc2o1 | inactive: -4.21% |
| CCOC(=O)N1CCC(Nc2ccc(OC)cc2)CC1 | inactive: -0.581% |
| N#CC1(Nc2ccccc2)CCN(Cc2ccccc2)CC1 | inactive: 0.99% |
| O=C(OC1CN2CCC1CC2)C1c2ccccc2Oc2ccccc21 (configuration not stated) | inactive: 1.01% |
| CN(C)c1cccc(C(=O)NCC2(N3CCCCC3)CCCCC2)c1 | inactive: -0.501% |
| COc1ccc(CN(CCCl)CCCl)cc1Cl | inactive: -0.0611% |
| CC(C)c1ccc(NC2CCN(C(=O)OC(C)(C)C)CC2)cc1 | inactive: -0.292% |
| COc1ccc2c(c1O)-c1c(O)c(OC)cc3c1[C@H](C2)[N+](C)(C)CC3.O=[N+]([O-])c1cc([N+](=O)[O-])c([O-])c([N+](=O)[O-])c1[O-] | inactive: 0.433% |
| O=C(OC1CN2CCC1CC2)c1ccc([N+](=O)[O-])cc1 (configuration not stated) | inactive: -1.33% |
| O=C(NCC1(N2CCOCC2)CCCCC1)c1ccccc1Br | inactive: -2.39% |
| CCCCOc1ccccc1C(=O)NCC1(N2CCOCC2)CCCCC1 | inactive: -1.61% |
| CCOc1ccc(C(=O)NCC2(N3CCOCC3)CCCCC2)cc1 | inactive: -1.61% |
| O=C(NCC1(N2CCCCC2)CCCCC1)c1cccc([N+](=O)[O-])c1 | inactive: -0.0598% |
| N#CC1(Nc2ccccc2)CCN(CCc2ccccc2)CC1 | inactive: -1.43% |
| CCCOc1cccc(C(=O)NCC2(N3CCOCC3)CCCCC2)c1 | inactive: -1.61% |
| O=[N+]([O-])c1cc([N+](=O)[O-])c(NCC2CCS(=O)(=O)C2)c([N+](=O)[O-])c1 (configuration not stated) | inactive: -1.37% |
| CN1CCN(CCOC(=O)C(O)(c2ccccc2)c2ccccc2)CC1 | inactive: 0.0534% |
| COc1ccc(NC2CCN(C(=O)OC(C)(C)C)CC2)cc1 | inactive: -5.26% |

| Structure (SMILES) | GFP activation |
| --- | --- |
| O=C(NCC1(N2CCOCC2)CCCCC1)c1cc(=O)[nH]c2ccccc12 | inactive: -8.96% |
| O=C(NCC1(N2CCOCC2)CCCCC1)c1ccc([N+](=O)[O-])cc1 | inactive: -2.39% |
| N#Cc1ccc(C(=O)NCC2(N3CCCCC3)CCCCC2)cc1 | inactive: 5.19% |
| O=C(NCC1(N2CCOCC2)CCCCC1)c1ccccc1[N+](=O)[O-] | inactive: 4.06% |
| CCOC(=O)C(CC)C1=NC(C)(C)Cc2ccccc21.O=[N+]([O-])c1cc([N+](=O)[O-])c(O)c([N+](=O)[O-])c1 (configuration not stated) | inactive: 0.524% |
| O=C(NCC1(N2CCOCC2)CCCCC1)c1ccccc1 | inactive: -1.61% |
| c1ccc(CN2CCC(Nc3ccccc3)CC2)cc1 | inactive: 1.42% |
| COc1ccc(C(=O)NCC2(N3CCOCC3)CCCCC2)cc1OC | inactive: 0.0725% |
| N/C(=N\O)c1c(N)no[n+]1[O-] | inactive: -0.741% |
| O=C(O)c1cccc(Nc2c([N+](=O)[O-])cc([N+](=O)[O-])cc2[N+](=O)[O-])c1 | inactive: 1.08% |
| O=C(OC1CN2CCC1CC2)C1c2ccccc2C=Cc2ccccc21 (configuration not stated) | inactive: -1.01% |
| CCOc1ncccc1C(=O)NCC1(N2CCOCC2)CCCCC1 | inactive: 0.952% |
| CC(C)(C)OC(=O)N1CCC(Nc2ccccc2)CC1 | inactive: 1.73% |
| CCC(CO)(C(=O)OC1CN2CCC1CC2)c1ccccc1 (configuration not stated) | inactive: 7.32% |
| COc1cc(C(=O)NCC2(N3CCOCC3)CCCCC2)cc(OC)c1OC | inactive: -2.39% |
| COc1cc(OC)cc(C(=O)NCC2(N3CCOCC3)CCCCC2)c1 | inactive: -1.5% |
| CCCOc1ccc(C)cc1CN(CCCl)CCCl | inactive: -0.222% |
| CN(C)C1(CNC(=O)c2ccc(C(C)(C)C)cc2)CCCCC1 | inactive: -1.61% |
| Fc1ccccc1NC1CCN(Cc2ccccc2)CC1 | inactive: 1.22% |
| CCN1CCC(Nc2cccc(F)c2)CC1 | inactive: 0.175% |
| CN(C)c1ccc(C(=O)NCC2(N3CCCCC3)CCCCC2)cc1 | inactive: 2.19% |
| CC(C)(C)c1ccc(C(=O)NCC2(N3CCOCC3)CCCCC2)cc1 | inactive: -3.23% |
| Cc1ccccc1C(=O)NCC1(N(C)C)CCCCC1 | inactive: 2.45% |
